Test results taken from ChEMBL document CHEMBL1909046, “DrugMatrix in vitro pharmacology data”.

By UniProt entry, the sequences of proteins in these tests, tags left out. Where a name states a change or a piece, a line headed by the entry shows the natural chain unless it says otherwise. Residues count along the entry.
UniProt P19327, whole entry, looked up: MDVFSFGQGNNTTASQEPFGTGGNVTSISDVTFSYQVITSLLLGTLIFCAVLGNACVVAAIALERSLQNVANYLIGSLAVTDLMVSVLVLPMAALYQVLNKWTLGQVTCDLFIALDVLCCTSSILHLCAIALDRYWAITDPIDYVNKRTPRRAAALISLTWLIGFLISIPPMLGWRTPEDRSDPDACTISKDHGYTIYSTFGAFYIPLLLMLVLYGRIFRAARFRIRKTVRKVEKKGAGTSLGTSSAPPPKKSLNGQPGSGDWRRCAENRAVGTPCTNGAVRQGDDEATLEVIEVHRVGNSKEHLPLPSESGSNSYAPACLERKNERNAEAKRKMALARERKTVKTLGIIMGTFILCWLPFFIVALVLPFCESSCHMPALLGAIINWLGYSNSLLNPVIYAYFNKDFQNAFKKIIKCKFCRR
UniProt P41595, whole entry, looked up: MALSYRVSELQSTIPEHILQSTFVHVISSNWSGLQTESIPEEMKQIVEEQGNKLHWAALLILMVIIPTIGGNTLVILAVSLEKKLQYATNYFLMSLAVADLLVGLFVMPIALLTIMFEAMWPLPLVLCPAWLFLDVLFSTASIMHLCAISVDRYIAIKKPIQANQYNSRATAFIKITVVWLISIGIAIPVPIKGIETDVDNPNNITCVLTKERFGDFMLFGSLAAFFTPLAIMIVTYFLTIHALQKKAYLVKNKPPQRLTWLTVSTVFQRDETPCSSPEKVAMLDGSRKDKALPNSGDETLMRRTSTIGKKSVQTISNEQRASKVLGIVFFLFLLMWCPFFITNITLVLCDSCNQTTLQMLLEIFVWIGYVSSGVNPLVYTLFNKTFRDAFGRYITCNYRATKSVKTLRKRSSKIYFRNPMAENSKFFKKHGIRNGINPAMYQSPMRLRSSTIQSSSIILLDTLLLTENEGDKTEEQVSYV
UniProt P06241, 2-537 limits assumed: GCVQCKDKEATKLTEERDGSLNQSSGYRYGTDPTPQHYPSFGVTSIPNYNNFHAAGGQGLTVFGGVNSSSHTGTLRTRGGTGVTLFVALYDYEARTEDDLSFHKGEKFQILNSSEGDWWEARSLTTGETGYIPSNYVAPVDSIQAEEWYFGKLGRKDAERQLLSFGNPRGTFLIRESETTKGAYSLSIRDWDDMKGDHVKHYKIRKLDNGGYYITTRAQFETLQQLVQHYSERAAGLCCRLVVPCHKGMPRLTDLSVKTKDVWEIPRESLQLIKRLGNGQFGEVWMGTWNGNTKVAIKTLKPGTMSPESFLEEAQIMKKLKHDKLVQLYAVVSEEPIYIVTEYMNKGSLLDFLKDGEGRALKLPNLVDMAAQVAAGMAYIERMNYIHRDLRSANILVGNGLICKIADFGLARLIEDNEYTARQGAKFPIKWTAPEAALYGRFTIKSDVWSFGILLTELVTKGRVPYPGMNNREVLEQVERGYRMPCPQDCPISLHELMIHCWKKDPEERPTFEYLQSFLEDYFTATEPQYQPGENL
UniProt P21917, whole entry, looked up: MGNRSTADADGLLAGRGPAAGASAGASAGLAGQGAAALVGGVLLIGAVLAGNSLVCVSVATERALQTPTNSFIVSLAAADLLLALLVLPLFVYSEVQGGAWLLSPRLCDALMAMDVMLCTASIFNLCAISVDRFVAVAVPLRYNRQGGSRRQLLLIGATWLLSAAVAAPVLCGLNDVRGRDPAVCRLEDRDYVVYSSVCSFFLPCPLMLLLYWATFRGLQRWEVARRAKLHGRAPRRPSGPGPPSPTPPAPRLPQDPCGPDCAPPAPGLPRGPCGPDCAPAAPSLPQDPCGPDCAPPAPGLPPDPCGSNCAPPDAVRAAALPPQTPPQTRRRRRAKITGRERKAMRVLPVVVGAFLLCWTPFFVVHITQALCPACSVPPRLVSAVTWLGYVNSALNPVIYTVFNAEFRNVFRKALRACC
UniProt P32241, 31-457 limits assumed: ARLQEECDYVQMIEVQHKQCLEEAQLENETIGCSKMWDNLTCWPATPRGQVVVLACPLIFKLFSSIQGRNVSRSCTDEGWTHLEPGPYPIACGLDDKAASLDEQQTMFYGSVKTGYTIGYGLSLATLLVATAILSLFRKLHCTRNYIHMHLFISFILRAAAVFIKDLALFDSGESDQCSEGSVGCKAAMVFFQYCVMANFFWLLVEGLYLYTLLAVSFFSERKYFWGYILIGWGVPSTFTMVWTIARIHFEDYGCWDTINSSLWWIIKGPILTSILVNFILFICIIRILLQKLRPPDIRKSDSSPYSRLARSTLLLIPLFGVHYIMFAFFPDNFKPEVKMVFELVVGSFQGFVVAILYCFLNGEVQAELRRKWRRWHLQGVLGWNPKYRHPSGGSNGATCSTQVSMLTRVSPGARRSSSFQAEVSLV
UniProt P27361, 2-379 limits assumed: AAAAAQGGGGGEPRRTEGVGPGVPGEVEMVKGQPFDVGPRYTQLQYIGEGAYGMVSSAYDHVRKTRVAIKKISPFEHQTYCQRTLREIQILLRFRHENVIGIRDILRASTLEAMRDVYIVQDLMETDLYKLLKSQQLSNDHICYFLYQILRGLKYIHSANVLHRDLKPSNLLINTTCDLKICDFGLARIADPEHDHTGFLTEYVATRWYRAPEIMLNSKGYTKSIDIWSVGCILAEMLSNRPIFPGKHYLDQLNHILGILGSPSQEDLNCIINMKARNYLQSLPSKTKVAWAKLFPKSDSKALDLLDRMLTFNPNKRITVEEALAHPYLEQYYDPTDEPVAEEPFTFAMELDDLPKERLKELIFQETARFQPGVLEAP
UniProt Q16539, 2-360 limits assumed: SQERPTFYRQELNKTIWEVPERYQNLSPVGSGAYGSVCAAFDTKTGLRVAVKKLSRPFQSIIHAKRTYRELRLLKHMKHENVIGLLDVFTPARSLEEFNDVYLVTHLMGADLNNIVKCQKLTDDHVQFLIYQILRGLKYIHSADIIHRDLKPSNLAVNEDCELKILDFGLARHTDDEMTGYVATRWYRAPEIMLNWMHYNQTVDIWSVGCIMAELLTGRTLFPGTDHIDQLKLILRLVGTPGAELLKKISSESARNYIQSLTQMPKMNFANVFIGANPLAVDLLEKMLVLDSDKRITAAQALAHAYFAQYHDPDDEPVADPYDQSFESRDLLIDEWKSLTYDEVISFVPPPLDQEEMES
UniProt P28335, 33-458 limits assumed: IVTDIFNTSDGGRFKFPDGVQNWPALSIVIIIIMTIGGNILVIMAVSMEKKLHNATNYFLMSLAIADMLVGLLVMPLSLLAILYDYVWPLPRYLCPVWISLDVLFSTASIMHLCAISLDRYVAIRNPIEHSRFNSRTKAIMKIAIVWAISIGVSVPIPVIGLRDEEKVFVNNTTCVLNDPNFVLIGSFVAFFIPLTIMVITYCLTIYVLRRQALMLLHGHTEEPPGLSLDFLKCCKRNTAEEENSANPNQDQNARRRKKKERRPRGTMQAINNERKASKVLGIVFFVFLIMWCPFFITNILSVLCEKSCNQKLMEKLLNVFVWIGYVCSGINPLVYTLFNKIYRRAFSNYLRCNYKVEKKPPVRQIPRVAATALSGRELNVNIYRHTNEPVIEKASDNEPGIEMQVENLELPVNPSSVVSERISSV
UniProt P03956, 100-469 limits assumed: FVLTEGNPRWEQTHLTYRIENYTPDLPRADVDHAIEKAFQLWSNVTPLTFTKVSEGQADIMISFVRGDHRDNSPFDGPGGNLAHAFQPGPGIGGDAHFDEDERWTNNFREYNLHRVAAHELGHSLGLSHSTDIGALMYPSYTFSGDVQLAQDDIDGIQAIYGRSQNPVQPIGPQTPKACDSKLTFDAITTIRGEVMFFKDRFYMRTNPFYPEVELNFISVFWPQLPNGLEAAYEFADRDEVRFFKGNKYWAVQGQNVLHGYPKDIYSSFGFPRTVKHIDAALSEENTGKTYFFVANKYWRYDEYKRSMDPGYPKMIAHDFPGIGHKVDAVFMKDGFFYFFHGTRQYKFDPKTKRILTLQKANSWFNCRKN
UniProt P14780, 107-707 limits assumed: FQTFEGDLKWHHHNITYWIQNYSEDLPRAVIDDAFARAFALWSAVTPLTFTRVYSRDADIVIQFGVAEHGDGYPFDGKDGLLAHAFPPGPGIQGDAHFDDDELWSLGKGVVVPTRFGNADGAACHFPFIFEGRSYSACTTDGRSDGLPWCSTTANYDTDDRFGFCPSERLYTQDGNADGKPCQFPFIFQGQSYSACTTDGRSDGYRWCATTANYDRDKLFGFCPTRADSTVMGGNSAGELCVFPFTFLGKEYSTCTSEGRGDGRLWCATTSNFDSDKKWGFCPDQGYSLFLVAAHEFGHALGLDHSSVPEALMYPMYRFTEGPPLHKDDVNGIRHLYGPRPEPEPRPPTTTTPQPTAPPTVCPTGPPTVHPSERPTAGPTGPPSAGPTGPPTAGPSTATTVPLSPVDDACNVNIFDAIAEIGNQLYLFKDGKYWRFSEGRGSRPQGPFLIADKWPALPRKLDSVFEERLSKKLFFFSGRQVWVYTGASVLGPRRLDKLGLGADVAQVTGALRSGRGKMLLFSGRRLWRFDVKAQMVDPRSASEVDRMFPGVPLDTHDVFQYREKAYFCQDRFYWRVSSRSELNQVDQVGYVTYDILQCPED
UniProt O70528: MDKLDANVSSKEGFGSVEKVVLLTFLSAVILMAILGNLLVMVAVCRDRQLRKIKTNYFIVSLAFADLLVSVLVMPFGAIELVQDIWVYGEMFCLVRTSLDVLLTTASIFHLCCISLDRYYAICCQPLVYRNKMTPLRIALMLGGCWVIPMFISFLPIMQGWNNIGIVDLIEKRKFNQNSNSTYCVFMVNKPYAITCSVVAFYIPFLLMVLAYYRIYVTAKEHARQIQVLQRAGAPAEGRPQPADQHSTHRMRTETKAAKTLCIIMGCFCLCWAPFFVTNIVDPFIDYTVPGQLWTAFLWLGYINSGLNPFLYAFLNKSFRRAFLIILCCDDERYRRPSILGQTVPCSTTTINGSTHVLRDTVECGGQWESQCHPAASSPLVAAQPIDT
UniProt P22303, 32-614 limits assumed: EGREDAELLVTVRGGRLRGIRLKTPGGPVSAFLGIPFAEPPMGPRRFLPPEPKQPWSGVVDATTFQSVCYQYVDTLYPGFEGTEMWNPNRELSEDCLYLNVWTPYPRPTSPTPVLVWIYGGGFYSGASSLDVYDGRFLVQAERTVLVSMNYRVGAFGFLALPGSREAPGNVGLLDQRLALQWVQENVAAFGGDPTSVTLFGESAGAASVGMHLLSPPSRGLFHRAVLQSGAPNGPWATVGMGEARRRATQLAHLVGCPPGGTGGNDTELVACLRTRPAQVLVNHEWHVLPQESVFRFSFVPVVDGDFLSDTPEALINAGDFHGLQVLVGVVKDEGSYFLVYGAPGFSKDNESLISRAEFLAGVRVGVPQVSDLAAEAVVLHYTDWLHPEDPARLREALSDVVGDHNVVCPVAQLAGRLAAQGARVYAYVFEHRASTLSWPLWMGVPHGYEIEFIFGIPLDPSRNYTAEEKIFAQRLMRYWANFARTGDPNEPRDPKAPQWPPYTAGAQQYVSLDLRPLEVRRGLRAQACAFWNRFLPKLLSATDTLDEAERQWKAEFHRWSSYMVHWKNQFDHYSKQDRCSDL

What was measured:
[1] = biological target: 5-hydroxytryptamine receptor 1A (Rattus norvegicus, UniProt P19327); test: DRUGMATRIX: Serotonin (5-Hydroxytryptamine) 5-HT1A radioligand binding (ligand: [3H] 8-OH-DPAT); details: cho-k1; also: in other assays of this panel Not Active means under 50% inhibition at 10 µM
[2] = biological target: 5-hydroxytryptamine receptor 2B (Homo sapiens, UniProt P41595); test: DRUGMATRIX: Serotonin (5-Hydroxytryptamine) 5-HT2B radioligand binding (ligand: [3H] Lysergic acid diethylamide); details: cho-k1; also: in other assays of this panel Not Active means under 50% inhibition at 10 µM
[3] = biological target: Epidermal growth factor receptor (Homo sapiens, UniProt P00533); test: DRUGMATRIX: Protein Tyrosine Kinase, EGF Receptor enzyme inhibition (substrate: Poly(Glu:Tyr)); details: insect cells
[4] = biological target: Tyrosine-protein kinase Fyn (Homo sapiens, UniProt P06241); test: DRUGMATRIX: Protein Tyrosine Kinase, Fyn enzyme inhibition (substrate: Poly(Glu:Tyr)); details: insect cells;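 also: enzymatic inhibition of Fyn kinase activity measured with Poly(Glu:Tyr) as the phosphorylation substrate; in other assays of this panel Not Active means under 50% inhibition at 10 µM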
D(4) dopamine receptor = D(4) dopamine receptor (Homo sapiens, UniProt P21917); test: DRUGMATRIX: Dopamine D4.2 radioligand binding (ligand: [3H] Spiperone); details: cho-k1
[5] = biological target: Receptor tyrosine-protein kinase erbB-2 (Homo sapiens, UniProt P04626); test: DRUGMATRIX: Protein Tyrosine Kinase, ERBB2 (HER2) enzyme inhibition (substrate: Poly(Glu:Tyr)); details: insect cells;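 also: inhibition of HER2 kinase enzyme activity, measured with Poly(Glu:Tyr) as the phosphorylation substrate; in other assays of this panel Not Active means under 50% inhibition at 10 µM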
[6] = biological target: Vasoactive intestinal polypeptide receptor 1 (Homo sapiens, UniProt P32241); details: ht-29; also: in other assays of this panel Not Active means under 50% inhibition at 10 µM
[7] = biological target: Mitogen-activated protein kinase 3 (Homo sapiens, UniProt P27361); test: DRUGMATRIX: Protein Serine/Threonine Kinase, ERK1 enzyme inhibition (substrate: Myelin Basic Protein)
[8] = biological target: Mitogen-activated protein kinase 14 (Homo sapiens, UniProt Q16539); test: DRUGMATRIX: Protein Serine/Threonine Kinase, p38alpha enzyme inhibition (substrate: Myelin Basic Protein)
[9] = biological target: 5-hydroxytryptamine receptor 2C (Homo sapiens, UniProt P28335); test: DRUGMATRIX: Serotonin (5-Hydroxytryptamine) 5-HT2C radioligand binding (ligand: [3H] Mesulergine); details: cho-k1
[10] = biological target: Beta-2 adrenergic receptor (Homo sapiens, UniProt P07550); test: DRUGMATRIX: Adrenergic beta2 radioligand binding (ligand: [3H] CGP-12177); details: cho
Interstitial collagenase = Interstitial collagenase (Homo sapiens, UniProt P03956); test: DRUGMATRIX: Peptidase, Matrix Metalloprotease-1 (MMP-1) enzyme inhibition (substrate: Mca-Pro-Leu-Gly-Leu-Dpa-Ala-Arg-NH2); details: Rheumatoid synovial fibroblasts
[11] = biological target: Protein phosphatase 3 catalytic subunit alpha (Homo sapiens, UniProt Q08209); test: DRUGMATRIX: Protein Serine/Threonine Phosphatase, PPP3CA (Calcineurin, PP2B) enzyme inhibition (substrate: DiFMUP); also: in other assays of this panel Not Active means under 50% inhibition at 10 µM
[12] = biological target: Matrix metalloproteinase-9 (Homo sapiens, UniProt P14780); test: DRUGMATRIX: Protease, Matrix Metalloprotease-9 (MMP-9) enzyme inhibition (substrate: Mca-Pro-Leu-Gly-Leu-Dpa-Ala-Arg-NH2)
Adenosine receptor A2a = Adenosine receptor A2a (Homo sapiens, UniProt P29274); test: DRUGMATRIX: Adenosine A2A radioligand binding (ligand: […]); details: hek293
[13] = biological target: 5-hydroxytryptamine receptor 4 (Cavia porcellus, UniProt O70528); test: DRUGMATRIX: Serotonin (5-Hydroxytryptamine) 5-HT4 radioligand binding (ligand: [3H] GR-113808); details: strain Dunkin-Hartley, Striatum; also: in other assays of this panel Not Active means under 50% inhibition at 10 µM
Acetylcholinesterase = Acetylcholinesterase (Homo sapiens, UniProt P22303); test: DRUGMATRIX: Acetylcholinesterase enzyme inhibition (substrate: acetylthiocholine); details: hek293

CN(C(=O)Cc1ccc(Cl)c(Cl)c1)C1CCC2(CCCO2)CC1N1CCCC1 (centres undefined)
Not Active: IC50 [1] | Ki [1] | IC50 [2] | Ki [2] | IC50 [3] | Ki [3] | IC50 [4] | Ki [4] | IC50 (D(4) dopamine receptor) | Ki (D(4) dopamine receptor) | IC50 [5] | Ki [5] | IC50 [6] | Ki [6] | IC50 [7] | Ki [7] | IC50 [8] | Ki [8] | IC50 [9] | Ki [9] | IC50 [10] | Ki [10] | IC50 (Interstitial collagenase) | Ki (Interstitial collagenase) | IC50 [11] | Ki [11] | IC50 [12] | Ki [12] | IC50 (Adenosine receptor A2a) | Ki (Adenosine receptor A2a) | IC50 [13] | Ki [13] | IC50 (Acetylcholinesterase) | Ki (Acetylcholinesterase)
